Measurements: ChEMBL document CHEMBL3862011, “Neuroprotective effects of benzyloxy substituted small molecule monoamine oxidase B inhibitors in Parkinson's disease” (Bioorg Med Chem, 2016)

By UniProt entry, the sequences of proteins in these tests, tags left out.
UniProt P27338, whole entry: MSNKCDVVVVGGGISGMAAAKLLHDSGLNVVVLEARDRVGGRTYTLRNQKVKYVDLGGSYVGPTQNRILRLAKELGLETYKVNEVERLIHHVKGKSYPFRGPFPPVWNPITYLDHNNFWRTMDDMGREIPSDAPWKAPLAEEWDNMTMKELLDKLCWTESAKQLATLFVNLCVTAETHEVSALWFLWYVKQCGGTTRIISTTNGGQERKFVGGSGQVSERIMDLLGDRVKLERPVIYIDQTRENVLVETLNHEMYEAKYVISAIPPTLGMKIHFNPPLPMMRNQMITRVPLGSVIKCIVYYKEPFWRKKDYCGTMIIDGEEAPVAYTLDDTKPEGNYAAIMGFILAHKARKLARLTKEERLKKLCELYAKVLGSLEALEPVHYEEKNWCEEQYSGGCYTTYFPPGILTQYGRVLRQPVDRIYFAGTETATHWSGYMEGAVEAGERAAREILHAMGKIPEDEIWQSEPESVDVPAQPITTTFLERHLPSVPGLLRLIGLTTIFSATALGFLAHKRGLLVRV

Tests used:
[1] = biological target: T1, Amine oxidase [flavin-containing] B (Homo sapiens, UniProt P27338)
[2] = biological target: T1, Amine oxidase [flavin-containing] B; test: Inhibition of recombinant human MAO-B using kynuramine as substrate assessed as decrease in 4-hydroxyquinoline production incubated for 20 mins by fluorescence spectrophotometry
Homo sapiens = organism: Homo sapiens; test: Selectivity index, ratio of IC50 for recombinant human MAO-A to IC50 for recombinant human MAO-B incubated for 20 mins
[3] = Cytotoxicity against rat PC12 cells assessed as cell survival at 100 uM after 24 hrs by MTT assay relative to control; format: toxicity, PC-12; settings: read-out: Survival
[4] = Cytotoxicity against rat PC12 cells assessed as cell survival at 20 uM after 72 hrs by MTT assay relative to control; format: toxicity, PC-12; settings: read-out: Survival

`O=C1CCc2ccc(OCc3cccc(Cl)c3)cc2N1` gave a pIC50 [1] of 7.85.
In the case of `CC(=O)c1ccc(OCc2cccc(F)c2)cc1O`, the pIC50 [2] was 8.55, the Ratio IC50 (Homo sapiens) was 17800 and the pIC50 [1] was 7.38.
`CC(=O)c1cccc(OCc2ccc(Br)cc2)c1` showed a pIC50 [1] of 7.03.
`O=C1OCc2cc(OCc3ccc(Cl)cc3)ccc21` gave a pIC50 [1] of 7.86.
`O=c1ccoc2cc(OCc3ccc(C(F)(F)F)cc3)ccc12` gave a pIC50 [1] of 7.56.
Work on `O=C1CCOc2cc(OCc3ccc(Cl)cc3)ccc21` yielded a pIC50 [1] of 7.38.
`O=C1CCCc2cc(OCc3ccc(Cl)cc3)ccc21` showed a pIC50 [1] of 8.14.
For `CC(=O)c1ccc(OCc2ccc(Cl)cc2)cc1O`, the pIC50 [1] was 7.37.
`O=C1OCc2cc(OCc3ccc(C(F)(F)F)cc3)ccc21` showed a viability at 24 h, 100 µM [3] of 81.9% and a pIC50 [1] of 8.19.
With `CC(=O)c1ccc(OCc2ccc(Cl)cc2)cc1F` the pIC50 [1] was 7.28.
`CC(=O)c1ccc(OCc2cccc(Cl)c2)cc1F` showed a viability at 72 h, 20 µM [4] of 132% and a pIC50 [1] of 7.88.
Work on `O=c1ccoc2cc(OCc3ccc(F)cc3)ccc12` yielded a pIC50 [1] of 7.20.
`O=c1ccoc2ccc(OCc3ccc(Cl)cc3)cc12` showed a pIC50 [1] of 7.60.
With `CC(=O)c1ccc(OCc2cccc(F)c2)cc1F` the pIC50 [1] was 7.02.
For `CC(=O)c1ccc(OCc2cccc(Cl)c2)cc1`, the pIC50 [1] was 7.60.
For `CC(=O)c1cccc(OCc2ccc(Cl)cc2)c1`, the pIC50 [1] was 7.98.
For `O=c1ccoc2ccc(OCc3ccc(F)cc3)cc12`, the pIC50 [1] was 7.81.
Molecule `CC(=O)c1ccc(OCc2ccc(F)cc2)cc1` has a pIC50 [1] of 7.81.
`CC(=O)c1ccc(OCc2ccc(F)cc2)cc1O` showed a pIC50 [2] of 8.52 and a pIC50 [1] of 7.55.
For `CC1(C)CC(=O)c2ccc(OCc3ccc(Cl)cc3)cc2O1`, the pIC50 [1] was 7.41.
With `O=C1CCc2ccc(OCc3cccc(Br)c3)cc2N1` the pIC50 [1] was 8.09.
Molecule `O=c1ccoc2cc(OCc3cccc(Cl)c3)ccc12` has a Ratio IC50 (Homo sapiens) of 89 and a pIC50 [1] of 7.36.
Work on `CC(=O)c1ccc(OCc2cccc(Cl)c2)cc1O` yielded a pIC50 [2] of 8.89, a Ratio IC50 (Homo sapiens) of 13600 and a pIC50 [1] of 7.60.
Work on `CC(=O)c1ccc(OCc2ccc(F)cc2)cc1F` yielded a pIC50 [1] of 7.24.
`CC1(C)CC(=O)c2ccc(OCc3ccc(F)cc3)cc2O1` showed a pIC50 [1] of 7.89.
With `O=C1OCc2cc(OCc3ccc(F)cc3)ccc21` the pIC50 [1] was 8.08.

pIC50: −log10 of the molar value.
